Data set [1] has as its target T1, Cyclooxygenase 2 derived from sheep placentae (Ovis aries, UniProt P79208).
T1 sequence (P79208 17-603): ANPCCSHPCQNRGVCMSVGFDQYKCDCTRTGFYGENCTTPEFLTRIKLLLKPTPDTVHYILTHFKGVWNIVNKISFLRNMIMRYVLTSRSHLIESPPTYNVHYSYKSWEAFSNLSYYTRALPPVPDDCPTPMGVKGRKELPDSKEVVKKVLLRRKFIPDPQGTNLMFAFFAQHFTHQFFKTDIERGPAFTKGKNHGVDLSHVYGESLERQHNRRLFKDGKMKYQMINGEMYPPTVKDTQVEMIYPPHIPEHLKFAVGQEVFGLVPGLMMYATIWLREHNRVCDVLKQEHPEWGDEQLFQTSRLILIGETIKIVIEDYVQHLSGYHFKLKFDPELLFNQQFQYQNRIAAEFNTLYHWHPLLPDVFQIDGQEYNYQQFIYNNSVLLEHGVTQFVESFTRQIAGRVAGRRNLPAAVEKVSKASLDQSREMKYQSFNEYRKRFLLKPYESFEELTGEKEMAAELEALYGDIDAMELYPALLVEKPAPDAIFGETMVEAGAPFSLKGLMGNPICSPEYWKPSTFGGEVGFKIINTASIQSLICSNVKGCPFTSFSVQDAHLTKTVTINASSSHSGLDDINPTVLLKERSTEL
The data set is described as follows: In vitro inhibition of cyclooxygenase 2 activity (synthesis of prostaglandin H2 from 14C-arachidonic acid, TLC autoradiography). The note with it: sheep placenta COX-2, 35° C., 30 min.

Data set [2] concerns mouse and rat. The data set is described as follows: Much higher doses of administration to mouse and rat. Type of data set: in vivo. The note with it: both mouse and rat. From the text: (§1) Four Wistar strain male rats at 8 weeks of age were subjected to an acute toxicity test.
Data set [3] deals with Wistar strain male rats. The data set is described as follows: Acute toxicity test, intravenous administration to rats. The class given is in vivo, rat. The note with it: intravenous 1 g/kg/3 ml, observed twenty-four hours.
Description: as §1

Data set [4] deals with mouse. Briefly: LD50 determination, intraperitoneal administration. The class given is in vivo. The note with it: administered intraperitoneally. As for the experimental part:
Concerning the toxicity of compounds A and B, their LD50 values were determined through use of mice and rats. […] One of the compounds, S-(2-phenylcarbamoyl-phenylselenyl)albumin, was tested for the acute toxicity. […].

Data set [5] deals with rat. The data set is described as follows: LD50 determination in rats. The class given is in vivo.
For data set [6], the system named is mice. Briefly: Acute toxicity, intravenous administration to mice. Type of data set: in vivo, mouse. The note with it: dissolved in physiological saline (5 g/kg administered). As for the experimental part:
Concerning the toxicity of compounds A and B, their LD50 values were determined through use of mice and rats. […] One of the compounds, S-(2-phenylcarbamoyl-phenylselenyl)albumin, was tested for the acute toxicity. The compound was dissolved in physiological saline and was intravenously administered to mice (5 g/kg). Its LD50 was much higher than 1 g/kg, thus confirming its high safety level.

For “S-(2-phenylcarbamoyl-phenylselenyl)-albumin [Compound B]”, the “Generated Amount of Prostaglandin H2 (%)” value in data set [1] (dose of compound 1 μM) worked out at 78.33 ± 10.58%; in data set [1] (dose of compound 3 μM), 72.13 ± 4.53 %; in data set [1] (dose of compound 10 μM) it was 35.40 ± 1.49 %. The Side effects entry is “no problematic side effect was observed” in data set [2] and “no particular side effect was noticed” in data set [3]. For the same substance, in data set [3], the Survival entry is “all rats survived healthily”. Moreover, the LD50 in data set [4] is reported as 740 mg/kg; in data set [5], “large doses were required”; in data set [6] it was “higher than 1 g/kg”.

Source of the values: patent publication US6495517B2, “Cyclooxygenase inhibitor” (A. Natterman & Cie. GmbH, priority 1998, dated 2002).
